{"sequences": {"note": "The chains behind the UniProt entries cited, without tags or fusion partners. Where a name states a change or a piece, a line headed by the entry shows the natural chain unless it says otherwise.", "UniProt P30680": "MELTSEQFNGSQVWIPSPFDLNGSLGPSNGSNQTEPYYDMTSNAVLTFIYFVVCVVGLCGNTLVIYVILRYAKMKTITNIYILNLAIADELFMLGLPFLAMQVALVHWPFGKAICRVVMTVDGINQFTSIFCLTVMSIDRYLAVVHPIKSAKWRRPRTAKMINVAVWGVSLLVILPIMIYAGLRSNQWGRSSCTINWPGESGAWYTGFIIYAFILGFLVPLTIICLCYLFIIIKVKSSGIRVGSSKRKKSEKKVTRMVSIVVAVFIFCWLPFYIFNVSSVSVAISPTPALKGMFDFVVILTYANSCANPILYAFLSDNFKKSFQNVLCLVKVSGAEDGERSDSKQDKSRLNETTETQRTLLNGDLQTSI"}, "source": "paper PMC6070450", "about": "“The tetraamine chelator outperforms HYNIC in a new technetium-99m-labelled somatostatin receptor 2 antagonist” (EJNMMI Research, 2018)", "target": "T1, sst2 receptor in HEK293-rsst2 cells (Rattus norvegicus, UniProt P30680)", "T1 construct": "expressed in transfected cells; host or cells: HEK293", "assay": "Immunofluorescence microscopy-based sst2 internalisation assay", "format": "cell-based", "settings": "10 nM, 37 °C, 30 min, HEK-sst2 cells"}
{"substance": "[Tyr^3]octreotide [TOC]", "values": [{"measurement": "sst2 receptor internalisation (agonist effect)", "value": "triggers massive receptor internalisation"}]}
